For one data set, the species on record is Rattus norvegicus. As to the kind of experiment: Compound (1 mM) was evaluated in vitro for the effect on rate of aging(rate constant) of Soman-inhibited rat erythrocyte AChE and first order rate constant was determined. To be noted: 1000 µM.
For data set [1], the target named is T1, Acetylcholinesterase (Rattus norvegicus, UniProt P37136). As to the kind of experiment: Effect on Acetylcholinesterase activity in rat erythrocytes. To be noted: read-out: I50.
Data set [2] deals with T1, Acetylcholinesterase. As to the kind of experiment: Effect on Acetylcholinesterase activity in rat brain homogenates. As to conditions: read-out: I50.

Molecules are shown by their SMILES.

With `CC[N+](C)(CC)CC(=O)CCN1C(=O)CCC1=O.[I-]`, the Rate constant in the data set filed under Rattus norvegicus came to 0.0661.

With `C[n+]1ccc(CCN2C(=O)CCC2=O)cc1.[I-]`, in the data set filed under Rattus norvegicus, the Rate constant came out at 0.0638. Same read-out and setting: the result for `C[n+]1ccccc1CCC(O)CCl.[I-]` (stereo not drawn) reads 0.05; that for `CCN(CC)CCc1cccc[n+]1C.[I-]`, 0.0562; that for `BrCCCCCC[n+]1ccccc1.[Br-]`, 0.0672. On to `CC[N+](C)(CC)CCc1ccccn1.[I-]`, for which, in the data set listed under Rattus norvegicus, the Rate constant was determined as 0.0472.

In turn, `C[N+](C)(C)CCCCl.[Br-]` came in with a Rate constant in the data set filed under Rattus norvegicus of 0.0359.

For the molecule `CC[N+](C)(CC)CC(=O)CCN1C(=O)CCC1=O`, the IC50 on Acetylcholinesterase [1] stood at 100 µM.

Take `BrCCCCCC[n+]1ccccc1`: the IC50 at Acetylcholinesterase [1] was determined as 60 µM; at Acetylcholinesterase [2] it was 90 µM.

In the data set filed under Rattus norvegicus, `CS(=O)(=O)[O-].C[n+]1ccccc1CCl` came in with a Rate constant of 0.0585. On the same count and under the same terms, the result for `CC1C=CN(C)c2c1c1c(n2C)CCC1OCCCl.O=C(O)/C=C/C(=O)O` (stereo not drawn) reads 0.109; that for `CC[N+](C)(CC)CCc1ccncc1.[I-]`, 0.0306.

The values are drawn from ChEMBL document CHEMBL1123058, “Synthesis of some quaternary ammonium alkylating agents and their effects on soman-inhibited acetylcholinesterase” (1985).
